Where a chain is given by its changes, count along the chain named.
Assays:
Assay type in all cases: cell-based
[1] = biological target: T1, α2β GlyR (Rattus norvegicus, UniProt P20781+P22771)
T1 construct: The cells were transfected with plasmids encoding the following proteins; expressed in transfected cells; host or cells: HEK293 (ATCC CRL-1573)
Description: (§1) The cells were transfected with plasmids encoding the following proteins: (i). rat GlyR α (1, 2, 3) subunits alone or combined with rat β subunits (Uniprot Accession Numbers: Q546L7, P22771, P20236, P20781); and (ii). rat GABAAR α1 combined with rat β2 and γ2 subunits (Uniprot Accession Numbers: P62813, P63138, P18508). The EGFP expression was used as a marker of successful protein expression. The transfection was performed using Lipofectamine 2000 (Invitrogen, ThermoFisher, Carlsbad, CA, USA) using the fabricant protocol. The plasmids used to express GlyRs and GABAARs have been previously described. To track the successful expression of GlyR β subunits and the GABAA γ2 or β2 subunit, these proteins were subcloned in the pIRES2-EGFP vector. The transfection ratio to obtain β-containing GlyRs was 1:5 of α:β, while the expression of γ2-containing GABAA receptors was 1:2:5 of α:β:γ2 [14, 15]. Chimeric GlyRs were described in a previous report. Site directed mutagenesis was performed by Charm Gene Science Mutagenex LLC. (Cumming, GA, USA). All the constructs were checked by full-length sequencing (SNPSaurus, Eugene, OR, USA).
(§2) In brief, patch electrodes (3–4 MΩ) were pulled from borosilicate glasses in a PC-100 puller (Narishige, Tokyo, Japan); then, they were filled with an intracellular solution, which contained (in mM) 120 CsCl, 8 EGTA, 10 HEPES (pH 7.4), 4 MgCl2, 0.5 GTP, and 2 ATP. The extracellular solution contained (in mM) 140 NaCl, 5.4 KCl, 2.0 CaCl2, 1.0 MgCl2, 10 HEPES (pH 7.4), and 10 glucose. Whole-cell patch-clamp recordings were performed at −60 mV with an Axoclamp 200B (Molecular Devices, Sunnyvale, CA, USA) or with HEKA EPC-10 (HEKA Elektronik GmbH, Reutlingen, Germany) amplifiers. […] Brief (3–5 s) pulses of agonist together with alkaloids were applied to cells. Stock solutions of the alkaloids were prepared in high purity distilled water. Aliquots of these stock solutions were diluted in reservoirs containing extracellular solution. […] The concentration–response curve parameters for the alkaloid inhibition (IC50, nH, and the maximal current inhibition) were obtained from the fitted curve of normalized concentration–response data points to the equation Iagonist = Imax (agonist)nH/((agonist)nH + (EC50)nH). The IC50 curves are best-fit mean ± SE from pooled data. […] The inhibition constant (Ki) was calculated using the Cheng–Prusoff equation (Ki = IC50/((2 + ([Agonist]/EC50)^nH)^1/nH − 1). The concentration of agonist corresponds to the sub-saturating agonist concentration used to obtain the IC50 for each alkaloid on a given GlyR subtype.

Amino acid sequences for entries named in this document (tags omitted). Residues count along the entry.
UniProt P20781, 23-496: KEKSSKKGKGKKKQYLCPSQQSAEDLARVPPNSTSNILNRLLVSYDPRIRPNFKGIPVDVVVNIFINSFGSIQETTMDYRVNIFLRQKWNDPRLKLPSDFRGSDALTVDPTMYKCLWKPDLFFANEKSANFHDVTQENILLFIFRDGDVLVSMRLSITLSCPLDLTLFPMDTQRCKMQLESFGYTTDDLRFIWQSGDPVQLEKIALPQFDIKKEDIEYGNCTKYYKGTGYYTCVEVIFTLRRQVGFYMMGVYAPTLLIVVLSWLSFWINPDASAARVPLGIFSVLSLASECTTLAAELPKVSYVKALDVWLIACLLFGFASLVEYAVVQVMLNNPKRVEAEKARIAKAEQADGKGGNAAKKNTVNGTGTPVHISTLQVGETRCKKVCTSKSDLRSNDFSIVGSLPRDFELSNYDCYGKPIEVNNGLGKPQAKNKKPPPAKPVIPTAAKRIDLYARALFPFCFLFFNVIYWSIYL

[2] = biological target: T2, α1β GlyR (Rattus norvegicus, UniProt P07727+P20781)
T2 construct: The cells were transfected with plasmids encoding the following proteins; expressed in transfected cells; host or cells: HEK293 (ATCC CRL-1573)
Description: as §1, §2

[3] = biological target: T3, α1 GlyR (Rattus norvegicus, UniProt P07727)
T3 construct: expressed in transfected cells; host or cells: HEK293 (ATCC CRL-1573)
T3 sequence (P07727 29-457): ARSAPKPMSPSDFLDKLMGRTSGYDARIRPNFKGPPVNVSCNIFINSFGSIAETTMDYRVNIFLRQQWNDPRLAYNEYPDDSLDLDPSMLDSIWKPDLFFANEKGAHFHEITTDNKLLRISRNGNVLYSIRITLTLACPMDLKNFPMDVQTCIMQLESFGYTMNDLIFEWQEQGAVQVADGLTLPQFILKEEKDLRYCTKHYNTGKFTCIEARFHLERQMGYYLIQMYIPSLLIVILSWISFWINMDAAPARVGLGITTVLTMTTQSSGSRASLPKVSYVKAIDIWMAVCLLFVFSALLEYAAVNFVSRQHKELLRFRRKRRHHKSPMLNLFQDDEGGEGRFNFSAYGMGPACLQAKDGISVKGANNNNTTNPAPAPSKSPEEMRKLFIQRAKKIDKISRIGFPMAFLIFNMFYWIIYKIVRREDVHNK
Description: as §1, §2

[4] = biological target: T4, α2 GlyR (Rattus norvegicus, UniProt P22771)
T4 construct: The cells were transfected with plasmids encoding the following proteins; expressed in transfected cells; host or cells: HEK293 (ATCC CRL-1573)
T4 sequence (P22771 28-452): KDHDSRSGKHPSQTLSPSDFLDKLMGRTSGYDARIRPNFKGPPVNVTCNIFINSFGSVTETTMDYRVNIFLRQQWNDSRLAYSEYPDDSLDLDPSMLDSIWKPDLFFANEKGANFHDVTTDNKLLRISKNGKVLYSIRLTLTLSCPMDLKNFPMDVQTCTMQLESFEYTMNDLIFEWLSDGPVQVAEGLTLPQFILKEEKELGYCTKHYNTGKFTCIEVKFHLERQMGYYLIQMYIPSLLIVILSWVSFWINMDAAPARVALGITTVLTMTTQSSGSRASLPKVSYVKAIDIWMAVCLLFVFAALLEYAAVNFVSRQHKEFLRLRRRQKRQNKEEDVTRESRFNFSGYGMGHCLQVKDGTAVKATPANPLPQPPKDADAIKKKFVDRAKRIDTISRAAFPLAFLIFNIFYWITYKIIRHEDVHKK
Description: as §1, §2

[5] = biological target: T5, α3 GlyR (Rattus norvegicus, UniProt P24524)
T5 construct: expressed in transfected cells; host or cells: HEK293 (ATCC CRL-1573)
T5 sequence (P24524 34-464): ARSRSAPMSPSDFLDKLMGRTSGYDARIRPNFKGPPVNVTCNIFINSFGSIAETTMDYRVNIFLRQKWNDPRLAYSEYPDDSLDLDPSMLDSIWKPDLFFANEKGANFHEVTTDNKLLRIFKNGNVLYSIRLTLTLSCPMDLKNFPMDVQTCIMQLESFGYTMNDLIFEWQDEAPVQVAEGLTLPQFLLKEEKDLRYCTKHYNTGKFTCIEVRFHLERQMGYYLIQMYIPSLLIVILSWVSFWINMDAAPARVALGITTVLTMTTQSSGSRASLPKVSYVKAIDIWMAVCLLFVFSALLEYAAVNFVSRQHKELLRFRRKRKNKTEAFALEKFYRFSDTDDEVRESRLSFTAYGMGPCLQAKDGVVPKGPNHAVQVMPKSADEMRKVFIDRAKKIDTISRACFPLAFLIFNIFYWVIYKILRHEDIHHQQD
Description: as §1, §2

[6] = biological target: T6, α3β GlyR (Rattus norvegicus, UniProt P20781+P24524)
T6 construct: The cells were transfected with plasmids encoding the following proteins; expressed in transfected cells; host or cells: HEK293 (ATCC CRL-1573)
Description: as §1
In brief, patch electrodes (3–4 MΩ) were pulled from borosilicate glasses in a PC-100 puller (Narishige, Tokyo, Japan); then, they were filled with an intracellular solution, which contained (in mM) 120 CsCl, 8 EGTA, 10 HEPES (pH 7.4), 4 MgCl2, 0.5 GTP, and 2 ATP. […]

[7] = biological target: T7, α1GlyR G160E (Rattus norvegicus, UniProt P07727, G188E); settings: read-out: EC50 of agonist (estimated)
T7 construct: expressed in transfected cells; host or cells: HEK293 (ATCC CRL-1573)
T7 sequence (P07727 29-457 G188E): T3 sequence (P07727 29-457) with G160E
Description: as §1, §2

[8] = biological target: T8, α1GlyR F63A (Rattus norvegicus, UniProt P07727, F91A); settings: read-out: EC50 of agonist (estimated)
T8 construct: expressed in transfected cells; host or cells: HEK293 (ATCC CRL-1573)
T8 sequence (P07727 29-457 F91A): T3 sequence (P07727 29-457) with F63A
Description: as §1, §2

SMILES | Maximal Modulation Concentration [1] | Maximal Modulation Concentration [2] | Maximal Modulation Concentration [3] | concentration from which glycinergic currents were inhibited ([3]; no potentiation) | Maximal Modulation Concentration [4] | Maximal Modulation Concentration [5] | Maximal Modulation Concentration [6] | EC50 [7] | EC50 [8] | EC50 ([2]; read-out: EC50 of agonist) | EC50 ([3]; read-out: EC50 of agonist)
C=C[C@@]12CN(C)[C@H]3C[C@]14C(=Nc1ccccc14)[C@H]1C[C@@H]2[C@@H]3CO1 [koumine] | 300 µM | 300 µM | 300 µM | 10 µM | 200 µM | 300 µM | 300 µM | – | – | – | –
NCC(=O)O [glycine, reference compound] | – | – | – | – | – | – | – | > 3000 µM | > 8000 µM | 71 ± 4 µM | 76 ± 4 µM
